We go through one compound from US11504379B2, “Amide compound, and Pin1 inhibitor, therapeutic agent for inflammatory diseases and therapeutic agent for cancer that use the same” (Hiroshima University, priority 2017, dated 2022).

For the data set, the system named is non-alcoholic steatohepatitis (NASH) model mice (HFDT). As to the kind of experiment: NASH treatment study in HFDT-fed NASH model mice. The conditions noted are these: 8 weeks, oral 5.0 mg/kg/day three times a week, FIG. 1 (C). As for the experimental part:
Animal experiments were performed using non-alcoholic steatohepatitis (NASH) model mice to test the compounds according to the present invention for the therapeutic effect on NASH.
NASH model mice (hereinafter referred to as “NASH mice”) were produced by feeding a high-fat diet containing trans fatty acids (HFDT) to individual male laboratory mice (C57BL/6J) for 8 weeks. […] In addition, a normal diet was given to individual male laboratory mice (C57BL/6J) for 8 weeks to prepare control mice.

Consider `O=C1C=CC(=O)c2c(O)cccc21` [Juglone, reference compound], for which the “fasting blood glucose level” value is on record as “abnormal increase”.
